Source: PubChem BioAssay AID2451 (National Center for Advancing Translational Sciences (NCATS), 2010)
About 2,100 (0.72%) of roughly 290,000 compounds were called active. These results got no clear call from the source, so the numbers are uncertain. The call rests on the fitted dose curve; in most records, active means well fitted inhibition curve with a large enough effect; inconclusive means small, poorly fitted or top-dose-only effect, or effect the other way; inactive means flat fitted curve, though single readings scatter.
Further: nearly all actives have a fitted effect of over 55% in size.
Potency means the concentration at half of the fitted maximal effect.

Sequences of proteins named here, by UniProt entry; tags and fusion partners are left off. A change or cut given only in a name is not applied to a line headed by its entry.
UniProt A8B2U2: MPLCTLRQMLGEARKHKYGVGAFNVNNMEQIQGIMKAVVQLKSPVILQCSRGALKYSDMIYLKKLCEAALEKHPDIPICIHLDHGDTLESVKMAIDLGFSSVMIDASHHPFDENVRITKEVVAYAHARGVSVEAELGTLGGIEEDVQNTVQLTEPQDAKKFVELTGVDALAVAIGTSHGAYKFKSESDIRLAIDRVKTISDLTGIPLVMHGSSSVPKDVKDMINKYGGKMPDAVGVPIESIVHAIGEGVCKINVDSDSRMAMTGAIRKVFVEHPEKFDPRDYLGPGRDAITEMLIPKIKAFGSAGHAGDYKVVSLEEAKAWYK

What follows are compounds tested against Fructose-bisphosphate aldolase (Giardia intestinalis (strain ATCC 50803 / WB clone C6)) (UniProt A8B2U2) (assay: qHTS Assay for Inhibitors of Fructose-1,6-bisphosphate Aldolase from Giardia Lamblia). Details: purified Giardia FBPA.
`O=[N+]([O-])c1cccc2n[nH]nc12` was tested, and the Potency was inconclusive: 15.8 µM.
In the case of `CCc1nc2c(n1)c1c(non1O)c1c2no[n+]1[O-]`, the Potency is reported as inconclusive: 0.792 µM.
With `O=[N+]([O-])c1cc([N+](=O)[O-])c(CCNc2ccccc2)c([N+](=O)[O-])c1` the Potency was inconclusive: 15.8 µM.
In the case of `O=[N+]([O-])c1ncn(CCn2ncnc2[N+](=O)[O-])n1`, the Potency is reported as inconclusive: 22.3 µM.
In the case of `Nc1cccc2ccc([As](=O)(O)O)cc12`, the Potency is reported as inconclusive: 5 µM.
For `O=[N+]([O-])c1cc([N+](=O)[O-])c(CCN2CCOCC2)c([N+](=O)[O-])c1`, the Potency was inconclusive: 14.1 µM.
`C(Cc1nn[nH]n1)Cc1nn[nH]n1` was tested, and the Potency was inconclusive: 1.26 µM.
For `Nc1cccc2c([As](=O)(O)O)cccc12`, the Potency was inconclusive: 2.24 µM.
